In this assay the target is Pim-2 (Homo sapiens (Human), UniProt Q9P1W9). The assay can be described thus: Pim-2 kinase assay. To be noted: read-out: Pim2 IC50; 1 mM ATP, fluorescein-labeled CREBtide peptide substrate. The protocol: Pim-2 kinase assay-20 μL reactions were run in white 384 well polystyrene plates dotted with 0.8 μL compound/DMSO in the assay buffer (50 mM Tris, pH 7.5, 0.01% Tween-20, 5 mM MgCl2, 0.01% BSA, 5 mM DTT), containing 0.05 μm Fluorescein-labeled CREBtide peptide substrate (Invitrogen PV3508), 1 mM ATP, and 1 nM enzyme (Invitrogen PV3649) for 2 h at 25° C. Reactions were stopped by addition of 10 μL TR-FRET Dilution Buffer (Invitrogen PV3574) with 30 mM EDTA and 1.5 nM LanthaScreen Tb-CREB pSer133 antibody (Invitrogen PV3566). After 30 min. incubation at room temperature, plates were read on a PHERAstar FS plate reader (BMG Labtech).

Chains of the proteins cited; added tags and fusions are not shown.
UniProt Q9P1W9, whole entry: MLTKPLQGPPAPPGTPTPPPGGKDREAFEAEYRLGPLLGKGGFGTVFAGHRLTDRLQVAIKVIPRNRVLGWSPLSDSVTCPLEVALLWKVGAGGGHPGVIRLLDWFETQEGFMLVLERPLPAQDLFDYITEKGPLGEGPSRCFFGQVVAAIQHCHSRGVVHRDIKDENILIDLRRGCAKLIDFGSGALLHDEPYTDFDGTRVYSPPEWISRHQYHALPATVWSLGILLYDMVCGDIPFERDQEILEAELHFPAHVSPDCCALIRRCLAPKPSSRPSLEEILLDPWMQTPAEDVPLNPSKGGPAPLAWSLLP

Molecules are shown by their SMILES. pIC50: −log10 of the molar value.

As a reminder, the pIC50 is −log10 of the IC50, conventionally taken in molar units. Consider `Nc1oc2cccnc2c1C(=O)Nc1cnccc1N1C[C@@H](N)[C@H](O)[C@@H](C(F)(F)F)C1` (single isomer, unassigned) [Example 87 (Diastereoisomer 2)], for which the pIC50 was 6.00 to 7.00.

Values taken from US10000507B2, “Furo- and thieno-pyridine carboxamide compounds useful as pim kinase inhibitors” (Incyte Corporation, priority 2013, dated 2018).
